Measured values from patent US12655189B2, “DOTA binding chimeric antigen receptor for cellular therapy” (THE TRUSTEES OF THE UNIVERSITY OF PENNSYLVANIA, priority 2019, dated 2026).
Entries after “also recorded” stand apart in the source; their conditions may differ.

Tests used:
[1] = test system: MDA468 (CD20-/EGFR+) cells; test: Luciferase lysis assay, MDA468; type: cell-based; settings: 16 hours, 2.5:1 E:T, average of 1 DOTA per antibody
Description: Cetuximab and Rituximab were conjugated to Bn-DOTA to create targeting ligands with an average of 1 DOTA molecule per antibody, confirmed by MALDI TOF. MDA468 (CD20-/EGFR+) cells and Ramos (CD20+/EGFR−) cells expressing fLuc were incubated for 16 hours with DOTA CAR T cells at a 2.5:1 E:T ratio and targeting ligands at a range of concentrations. Each condition was run in triplicate. Luminescence was measured after co-culture and used to calculate lysis.

MDA468 (EGFR+) cells = test: Redirected lysis of MDA468 cells by DOTA CAR T cells (xCellegence); type: cell-based, human; settings: for lysis of MDA468 (EGFR+) cells: DOTA CAR T cells plus varying amounts of targeting ligand
Description: (§1) FIGS. 5A-5F illustrate the ability to change the DOTA-Y antibody specificity to target CAR T cells against various cell surface antigens. FIG. 5A is an experimental schematic illustrating anti-DOTA immune receptor T cells lyse multiple tumor cells with introduction of specific DOTA-Y labeled antibodies. […] DOTA CAR T cells were added to wells at a density of 0.5×10^5 receptor positive cells/well. Measurements were continued for 4 days. xCellegence software was used to normalize readings and calculate lysis values compared to tumor only control. Lysis (%) of Her2+ SKBR3 cells (left) and of FRα+ T47D cells (right) 16 hours post T cell addition is shown. […] T cells added at T=0. […] Measurements were continued for 4 days. xCellegence software was used to normalize readings and calculate lysis values compared to tumor only control. T cells added at T=0.
(§2) To investigate the ability of DOTA-Y-CAR T cell complexes to lyse target cells, HER2-specific Herceptin-DOTA-Y-CAR T cell complexes were co-cultured with Her2^+ SKBR3 breast cancer cells (FIG. 3G). Cancer cell killing was not detectable in co-cultures of DOTA CAR T cells and cancer cells until Y-DOTA-labeled Herceptin Ab was added to culture at various doses.
The specificity of pre-loaded DOTA-Y antibodies was tested. Antibodies specific for the cell surface receptors Her2 (Herceptin), Folate receptor (Mov18), or EGFR (Cetuximab), which were conjugated to DOTA-Y, were combined with CAR T cells expressing various intracellular domains and incubated with multiple cell lines, including SKBR3 (Her2+), T47D (Fra+), SKOV3 (Her2^+), and MDA468 (EGFR^+) cells (FIG. 5A). DOTA-28z-CAR T cells combined with Herceptin or Mov18 antibodies were able to lyse SKBR3 and T47D cells, respectively (FIG. 5B). Additionally, various amounts of Herceptin or Cetuximab antibody was tested in SKOV3 or MDA468 cells, respectively (FIGS. 5C and 5D, respectively).
Varying the number of chelators per antibody allows for reduced non-specific cell lysis while maintaining strong lytic function (FIG. 8)

[2] = test system: Skov3 (HER2+) cells expressing firefly luciferase; test: Luciferase specific lysis assay, Skov3; type: cell-based; settings: 16 hours, 2.5:1 E:T ratio, valency or hinge varied
Description: Herceptin was conjugated to DOTA-NHS molecules at varying molar ratios in order to create targeting ligands with lower valency. Skov3 (HER2+) cells expressing firefly luciferase (fLuc) were incubated for 16 hours with DOTA CAR T cells at a 2.5:1 E:T ratio and targeting ligands at a range of concentrations. Each condition was run in triplicate. Luminescence was measured after co-culture and used to calculate specific lysis (FIG. 21, right panel).
DOTA CARs with varying hinge lengths were created to allow the possibility of optimizing physical interactions at the cell surface (FIG. 23). The standard DOTA CAR uses a CD8a hinge (45 AA). DOTA CARs with a shorter IgG4 hinge (12 AA) and a longer IgG4-CH2CH3 hinge (216 AA) were created. The IgG4 hinge was inserted with and without an amino acid change that allows cross-linking. To assess their function, Skov3 (HER2+) cells expressing fLuc were incubated for 16 hours with DOTA CAR T cells at a 2.5:1 E:T ratio and targeting ligand at a range of concentrations. Each condition was run in triplicate. Luminescence was measured after co-culture and used to calculate lysis.

SKBR3 (Her2+) cells = test: Redirected lysis of SKBR3 cells by DOTA CAR T cells (xCellegence); type: cell-based, human; settings: DOTA CAR T cells plus DOTA-Y conjugated Herceptin
Description: as §1, §2
The specificity of pre-loaded DOTA-Y antibodies was tested. […]

[3] = test system: anti-DOTA immune receptor T cells; test: Pre-loading of DOTA-Y labeled antibody onto DOTA immune receptor T cells (flow cytometry); type: cell-based, human
From the text: FIGS. 4A-4C illustrate that anti-DOTA immune receptor T cells permit pre-loading of DOTA-Y labeled targeting ligands. FIG. 4A illustrates the pre-loading protocol. 4D5 is a humanized Herceptin antibody.
One key feature of the present invention is the ability to alter the specificity of the DOTA-Y by loading the DOTA with target-specific ligands/antibodies. A protocol for pre-labeling the antibodies was optimized and tested. Primary human T cells were transduced with lentivirus containing GFP and DOTA immune receptor (FIG. 4A). […] Excess antibody was washed and, at various time points post-antibody addition, cells were stained with soluble recombinant Her2-His, followed by PE anti-His APC antibody and analyzed by flow cytometry, gating on live cells.

[4] = test system: Skov3 cells expressing fLuc; test: In vivo anti-tumor activity versus DOTA-conjugation valency; design: species or system NSG mice; settings: 24 days after CAR T cell injection; DOTA BBz T cells, 25 ug ligand I.P. every 4 days
Description: NOD.Cg-Prkdc^scid Il2rg^tm1wj1/SzJ (NSG) mice were injected in the intraperitoneal (I.P.) cavity with 1×10^6 Skov3 cells expressing fLuc (FIGS. 28A-28B). After 6 days to allow tumor engraftment, 25 ug of targeting ligand was injected I.P. into each mouse. One day later, 10×10^6 CAR+ T cells were injected I.P. Treatment groups were given DOTA BBz T cells and either high valency or low valency Her-Bn-DOTA-Y. Control groups were given DOTA Dz T cells and targeting ligands or DOTA BBz T cells and saline. Targeting ligand was injected every 4 days and tumors were monitored via bioluminescence imaging.

Q: How did the “lysis of MDA468 cells” value [1] turn out when “Cetuximab-Bn-DOTA: Cetuximab conjugated to Bn-DOTA, average of 1 DOTA molecule per antibody” was run?
A: able to specifically lyse their respective target cell lines

Q: With “Cetuximab-DOTA-Y: EGFR-specific Cetuximab antibody conjugated to DOTA-Y” as the substance, how does the “lysis of MDA468 (EGFR+) cells” value (MDA468 (EGFR+) cells) read?
A: able to lyse the MDA468 cells; also recorded: dose-dependent lysis of MDA468 cells

Q: For “Herceptin-Bn-DOTA: Herceptin conjugated with P-SCN-Bn-DOTA chelator”, which “non-specific lysis of MDA468 (Her2 negative) cells” value (MDA468 (EGFR+) cells; Herceptin-based ligand on antigen negative cells) is on record?
A: occurs at high concentrations of the targeting ligands

Q: And the “specific lysis of Skov3 (HER2+) cells” value [2]?
A: reduced off-target lysis while maintaining efficacy against antigen-expressing cells

Q: Which results are given for “Herceptin-DOTA-Y: Herceptin labeled with DOTA-NHS-ester and incubated with yttrium chloride”?
A: lysis of SKBR3 (Her2+) cells (SKBR3 (Her2+) cells): rapid and “on demand”; lysis of MDA468 (EGFR+) cells (MDA468 (EGFR+) cells): only the EGFR-specific Cetuximab-loaded CAR was able to lyse; loading of antibody onto DOTA T cells ([3]; 1 hour at 37° C., detected with Her2-His): dose-dependent, low level loading; time to full loss of loading ([3]; post-antibody addition): ≤ 72 h

Q: Which “specific lysis of Skov3 (HER2+) cells” value [2] does the source give for “Herceptin-NHS-DOTA: Herceptin conjugated to DOTA-NHS molecules” here?
A: required a higher valency to effectively lyse target cells

Q: Which “tumor burden (bioluminescence)” value [4] does the source give for “high valency Her-Bn-DOTA-Y: Herceptin-Bn-DOTA-Y targeting ligand of high DOTA valency” here?
A: significantly reduced (p=0.012)

Q: With “low valency Her-Bn-DOTA-Y: Herceptin-Bn-DOTA-Y targeting ligand of low DOTA valency” as the substance, how does the “tumor burden (bioluminescence)” value [4] read?
A: reduced in two mice of the low valency group, but this was not significant
